Assay results: patent publication US20050164945A1, “Endotheliase-1 ligands” (priority 2003, published 2005)

Molecular target: T1, recombinant endotheliase 1 (human), Q9UL52
T1 chain: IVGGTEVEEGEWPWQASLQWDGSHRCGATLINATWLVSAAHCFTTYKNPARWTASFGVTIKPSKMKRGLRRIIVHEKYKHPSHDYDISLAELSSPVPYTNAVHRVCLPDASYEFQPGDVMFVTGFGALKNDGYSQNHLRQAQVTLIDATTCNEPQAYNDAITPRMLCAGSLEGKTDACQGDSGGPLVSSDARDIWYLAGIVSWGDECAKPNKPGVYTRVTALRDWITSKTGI
Test: apparent Ki, inhibition of ET1, uncorrected for substrate

Going from AGQVRRYCISRDIPCVTHGT (modifications not checked) [DX-1626] to AGQMRRKCISRDIPCVTHGTY (modifications not checked) [DX-1628], the Ki falls from 16.6 nM to 10.2 nM (1.6-fold). The second binds more tightly here.

Compared with AGRSRVRCISRDIPCVTHGTY (modifications not checked) [DX-1629], AGKMRCISRDIPCSHYQIGT (modifications not checked) [DX-1637] is 17-fold lower in Ki: 145 nM for the first, 8.5 nM for the second.

Compared with AGKHICRGYYPDCVWQTWGT (modifications not checked) [DX-1646], AGKHICRGYYPDCEWQIFGT (modifications not checked) [DX-1650] is 3.9-fold higher in Ki: 8.6 nM for the first, 33.6 nM for the second.

Molecular target: T1, recombinant endotheliase 1 (human), …
Test: inhibition of ET1 activity

First: AGKHICKGYYPDCGYPGT (modifications not checked) [DX-1039]
Second: AGNYMCKGYWPDCKMTGT (modifications not checked) [DX-1133]
The Ki of the first is 2.5-fold lower: 103 nM for the first, 256 nM for the second. The first binds more tightly here.
